Values quoted from earlier work, collected in publication PMC9229563, “Pharmacokinetics and the Dermal Absorption of Bromochlorophene, a Cosmetic Preservative Ingredient, in Rats” (Toxics, 2022).

Conditions: rat, in vivo, po; cited from earlier work

In the case of Oc1c(Br)cc(Cl)cc1Cc1cc(Cl)cc(Br)c1O [BCP, 2,2'-Methylenbis (6-bromo-4-chlorophenol)], the LD50 is listed as 3700 mg/kg.
